{
  "sequences": {"note": "The chains behind the UniProt entries cited, without tags or fusion partners. Where a name states a change or a piece, a line headed by the entry shows the natural chain unless it says otherwise.", "UniProt P41145": "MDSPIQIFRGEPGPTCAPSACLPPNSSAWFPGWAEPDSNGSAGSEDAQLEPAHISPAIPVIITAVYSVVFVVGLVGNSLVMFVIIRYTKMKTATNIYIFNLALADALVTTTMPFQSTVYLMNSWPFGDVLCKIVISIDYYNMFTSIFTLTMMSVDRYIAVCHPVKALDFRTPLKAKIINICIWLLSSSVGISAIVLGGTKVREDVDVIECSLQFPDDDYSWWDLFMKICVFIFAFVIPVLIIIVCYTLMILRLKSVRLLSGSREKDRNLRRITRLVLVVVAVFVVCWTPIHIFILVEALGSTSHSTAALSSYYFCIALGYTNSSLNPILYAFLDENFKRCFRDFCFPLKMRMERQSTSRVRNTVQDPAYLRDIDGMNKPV", "UniProt P35372, whole entry": "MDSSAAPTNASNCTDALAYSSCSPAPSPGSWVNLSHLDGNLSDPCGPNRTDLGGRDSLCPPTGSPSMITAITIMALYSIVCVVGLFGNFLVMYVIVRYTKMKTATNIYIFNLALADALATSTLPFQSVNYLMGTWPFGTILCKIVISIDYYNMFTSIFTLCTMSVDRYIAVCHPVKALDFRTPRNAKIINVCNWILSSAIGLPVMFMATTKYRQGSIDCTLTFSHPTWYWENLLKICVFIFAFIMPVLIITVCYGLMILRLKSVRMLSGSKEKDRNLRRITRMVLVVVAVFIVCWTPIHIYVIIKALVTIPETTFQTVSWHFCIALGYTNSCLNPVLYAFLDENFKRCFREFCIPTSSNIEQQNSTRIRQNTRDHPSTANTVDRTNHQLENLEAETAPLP"},
  "source": "patent US20110195433A1",
  "about": "(priority 2007, published 2011)",
  "key": {"[1]": {"target": "T1, human KOR (Homo sapiens, UniProt P41145)", "format": "binding", "set-up": "expressed in transfected cells; membranes"}, "[2]": {"target": "T1, human KOR", "format": "biochemical", "set-up": "expressed in transfected cells; membranes"}, "[3]": {"target": "T2, human MOR (Homo sapiens, UniProt P35372)", "format": "biochemical", "set-up": "expressed in transfected cells; membranes"}, "[4]": {"target": "T1, human KOR"}, "[5]": {"target": "T2, human MOR", "format": "binding", "set-up": "expressed in transfected cells; membranes"}, "[6]": {"target": "T2, human MOR"}},
  "note": "“Also recorded” adds a separate entry of the source.",
  "data": [
    {"smiles": "Oc1ccc2c3c1O[C@H]1[C@H](O)CC[C@@]4(O)[C@@H](C2)N(CC2CC2)CC[C@]314", "note": "[6β-naltrexol]", "values": [
      {"measurement": "binding affinity, fold higher than naloxone", "setting": "[1]", "value": "2- to 5 fold"},
      {"measurement": "binding affinity, fold less potent than naltrexone", "setting": "[1]", "value": 2, "unit": "fold"},
      {"measurement": "effect on basal [35S]GTPγS binding", "setting": "[2]", "value": "no inverse agonist effects; also recorded: decreased; also recorded: but not morphine-pretreated"},
      {"measurement": "inhibition of the inverse agonist effect of naloxone", "setting": "[2]", "value": "inhibited"},
      {"measurement": "pharmacological property at KOR", "setting": "[2]", "value": "turned into inverse agonist"},
      {"measurement": "effect on basal [35S]GTPγS binding", "setting": "[3]", "value": "no inverse agonist effects; also recorded: did not decrease"},
      {"measurement": "inhibition of the inverse agonist effect of naloxone", "setting": "[3]", "value": "inhibited"},
      {"measurement": "pharmacological property at MOR", "setting": "[3]", "value": "neutral antagonists regardless of agonist pretreatment"},
      {"measurement": "antagonistic property against agonist-stimulated [35S]GTPγS binding", "setting": "[4]", "value": "full antagonists"},
      {"measurement": "binding affinity, fold higher (more potent) than naloxone", "setting": "[5]", "value": "2- to 5 fold"},
      {"measurement": "binding affinity, fold less potent than naltrexone", "setting": "[5]", "value": 2, "unit": "fold"},
      {"measurement": "antagonistic property against agonist-stimulated [35S]GTPγS binding", "setting": "[6]", "value": "full antagonists"}
    ]}
  ]
}
